# Data: ChEMBL document CHEMBL1201862, “PubChem BioAssay data set” (2004)
# Sequences of proteins named here, by UniProt entry; tags and fusion partners are left off. A change or cut given only in a name is not applied to a line headed by its entry.
# UniProt O15296: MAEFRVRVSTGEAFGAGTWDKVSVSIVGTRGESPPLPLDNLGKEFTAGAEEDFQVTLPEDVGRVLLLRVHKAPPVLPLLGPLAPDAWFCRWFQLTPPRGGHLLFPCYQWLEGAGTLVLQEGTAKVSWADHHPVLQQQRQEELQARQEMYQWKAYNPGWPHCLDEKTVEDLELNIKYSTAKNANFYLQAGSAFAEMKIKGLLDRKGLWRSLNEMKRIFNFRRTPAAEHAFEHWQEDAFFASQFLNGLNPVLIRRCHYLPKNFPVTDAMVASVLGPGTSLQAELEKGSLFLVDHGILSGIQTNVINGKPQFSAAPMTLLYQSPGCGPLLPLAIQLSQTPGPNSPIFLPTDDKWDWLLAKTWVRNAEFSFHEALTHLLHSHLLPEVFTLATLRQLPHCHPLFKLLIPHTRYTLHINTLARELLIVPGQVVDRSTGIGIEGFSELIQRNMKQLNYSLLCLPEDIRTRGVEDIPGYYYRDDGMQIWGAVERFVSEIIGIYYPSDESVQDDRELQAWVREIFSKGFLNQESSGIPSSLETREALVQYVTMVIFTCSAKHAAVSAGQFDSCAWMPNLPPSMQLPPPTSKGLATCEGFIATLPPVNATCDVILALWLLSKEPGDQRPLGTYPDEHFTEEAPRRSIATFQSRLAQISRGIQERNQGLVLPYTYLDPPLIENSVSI
# UniProt P16050: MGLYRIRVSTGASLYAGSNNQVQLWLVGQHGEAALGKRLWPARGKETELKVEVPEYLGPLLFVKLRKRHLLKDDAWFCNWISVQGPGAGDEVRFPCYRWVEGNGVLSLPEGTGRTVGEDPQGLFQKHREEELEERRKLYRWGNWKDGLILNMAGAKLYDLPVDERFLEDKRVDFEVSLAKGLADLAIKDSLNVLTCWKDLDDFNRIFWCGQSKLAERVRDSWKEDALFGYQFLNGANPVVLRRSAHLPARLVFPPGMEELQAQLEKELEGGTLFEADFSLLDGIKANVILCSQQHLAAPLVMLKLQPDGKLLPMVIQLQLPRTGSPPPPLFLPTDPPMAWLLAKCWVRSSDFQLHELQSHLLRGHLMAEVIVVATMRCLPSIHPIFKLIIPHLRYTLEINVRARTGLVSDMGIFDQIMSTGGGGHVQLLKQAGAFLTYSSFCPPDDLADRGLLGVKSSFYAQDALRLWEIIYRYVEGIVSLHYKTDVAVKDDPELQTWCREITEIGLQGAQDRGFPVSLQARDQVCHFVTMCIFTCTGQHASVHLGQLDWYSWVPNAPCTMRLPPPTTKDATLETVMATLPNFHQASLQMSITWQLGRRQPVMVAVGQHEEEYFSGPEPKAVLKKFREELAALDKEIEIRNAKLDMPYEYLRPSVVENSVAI
# UniProt Q9Y468: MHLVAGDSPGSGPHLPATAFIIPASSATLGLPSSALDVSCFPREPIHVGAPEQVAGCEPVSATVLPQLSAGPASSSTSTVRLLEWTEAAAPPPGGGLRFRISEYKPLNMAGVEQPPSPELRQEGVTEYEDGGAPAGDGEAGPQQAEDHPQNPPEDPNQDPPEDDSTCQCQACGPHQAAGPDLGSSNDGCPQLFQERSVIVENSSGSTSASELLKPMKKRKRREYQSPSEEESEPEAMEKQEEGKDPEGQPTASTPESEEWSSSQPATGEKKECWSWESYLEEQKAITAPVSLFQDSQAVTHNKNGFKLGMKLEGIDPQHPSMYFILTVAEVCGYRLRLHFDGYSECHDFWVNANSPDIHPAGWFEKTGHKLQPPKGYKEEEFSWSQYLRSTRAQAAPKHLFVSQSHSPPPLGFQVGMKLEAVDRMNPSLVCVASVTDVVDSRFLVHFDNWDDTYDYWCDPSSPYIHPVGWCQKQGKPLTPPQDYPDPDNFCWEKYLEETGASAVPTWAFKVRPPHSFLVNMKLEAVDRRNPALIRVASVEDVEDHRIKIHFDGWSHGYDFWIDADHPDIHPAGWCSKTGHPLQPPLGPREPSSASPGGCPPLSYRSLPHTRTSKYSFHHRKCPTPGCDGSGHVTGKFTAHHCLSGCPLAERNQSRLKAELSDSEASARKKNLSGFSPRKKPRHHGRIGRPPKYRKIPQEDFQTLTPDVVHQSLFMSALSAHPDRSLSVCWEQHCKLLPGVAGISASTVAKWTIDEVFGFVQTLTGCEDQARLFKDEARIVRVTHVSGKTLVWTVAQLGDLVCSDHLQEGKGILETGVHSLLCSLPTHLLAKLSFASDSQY
# UniProt Q99700, whole entry, looked up: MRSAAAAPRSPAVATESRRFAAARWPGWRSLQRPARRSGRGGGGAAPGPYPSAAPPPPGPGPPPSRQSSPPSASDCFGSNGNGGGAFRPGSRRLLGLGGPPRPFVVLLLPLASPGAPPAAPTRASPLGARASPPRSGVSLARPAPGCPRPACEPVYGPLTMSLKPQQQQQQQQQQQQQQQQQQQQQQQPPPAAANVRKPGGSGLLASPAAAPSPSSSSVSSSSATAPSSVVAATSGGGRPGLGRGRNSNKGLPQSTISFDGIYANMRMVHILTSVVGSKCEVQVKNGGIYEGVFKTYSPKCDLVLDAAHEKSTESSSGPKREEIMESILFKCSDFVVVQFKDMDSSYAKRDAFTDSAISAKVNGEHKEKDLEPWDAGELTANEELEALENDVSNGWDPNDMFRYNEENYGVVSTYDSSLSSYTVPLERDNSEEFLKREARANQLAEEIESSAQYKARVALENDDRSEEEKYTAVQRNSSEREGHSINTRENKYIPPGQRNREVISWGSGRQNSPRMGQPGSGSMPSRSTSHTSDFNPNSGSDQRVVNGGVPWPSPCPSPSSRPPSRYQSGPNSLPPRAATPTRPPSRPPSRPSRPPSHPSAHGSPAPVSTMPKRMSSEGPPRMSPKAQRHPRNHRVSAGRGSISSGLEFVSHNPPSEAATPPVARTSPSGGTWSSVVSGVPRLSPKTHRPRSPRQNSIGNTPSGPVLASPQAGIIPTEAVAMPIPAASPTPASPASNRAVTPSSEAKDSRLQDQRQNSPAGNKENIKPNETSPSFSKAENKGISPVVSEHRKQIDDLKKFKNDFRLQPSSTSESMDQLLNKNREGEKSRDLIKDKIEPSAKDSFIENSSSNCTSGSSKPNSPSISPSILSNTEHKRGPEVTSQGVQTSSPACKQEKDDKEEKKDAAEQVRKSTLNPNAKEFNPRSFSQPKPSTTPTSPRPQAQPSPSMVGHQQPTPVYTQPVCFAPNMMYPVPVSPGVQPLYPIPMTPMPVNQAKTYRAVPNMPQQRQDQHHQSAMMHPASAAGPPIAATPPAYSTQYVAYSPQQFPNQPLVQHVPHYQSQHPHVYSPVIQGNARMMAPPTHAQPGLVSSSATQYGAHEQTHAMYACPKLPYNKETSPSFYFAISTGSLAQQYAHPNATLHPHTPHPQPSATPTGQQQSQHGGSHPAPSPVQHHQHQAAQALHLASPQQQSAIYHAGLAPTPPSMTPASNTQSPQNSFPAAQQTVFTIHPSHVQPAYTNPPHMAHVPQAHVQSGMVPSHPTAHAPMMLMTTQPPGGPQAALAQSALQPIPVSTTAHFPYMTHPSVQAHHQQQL
# UniProt P00352: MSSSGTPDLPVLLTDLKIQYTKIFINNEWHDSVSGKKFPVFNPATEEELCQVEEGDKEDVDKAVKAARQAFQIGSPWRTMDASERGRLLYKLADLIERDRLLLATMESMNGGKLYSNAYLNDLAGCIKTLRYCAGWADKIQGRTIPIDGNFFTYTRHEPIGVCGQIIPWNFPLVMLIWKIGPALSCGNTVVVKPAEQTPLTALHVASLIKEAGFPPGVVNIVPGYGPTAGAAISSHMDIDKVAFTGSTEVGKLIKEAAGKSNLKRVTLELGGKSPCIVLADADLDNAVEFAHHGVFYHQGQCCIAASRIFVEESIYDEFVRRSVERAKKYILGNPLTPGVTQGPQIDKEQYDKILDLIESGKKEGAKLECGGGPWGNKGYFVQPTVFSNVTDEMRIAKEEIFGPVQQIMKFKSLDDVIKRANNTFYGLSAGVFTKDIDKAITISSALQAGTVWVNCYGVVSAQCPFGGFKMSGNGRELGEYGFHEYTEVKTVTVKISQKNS
# UniProt P43220, whole entry, looked up: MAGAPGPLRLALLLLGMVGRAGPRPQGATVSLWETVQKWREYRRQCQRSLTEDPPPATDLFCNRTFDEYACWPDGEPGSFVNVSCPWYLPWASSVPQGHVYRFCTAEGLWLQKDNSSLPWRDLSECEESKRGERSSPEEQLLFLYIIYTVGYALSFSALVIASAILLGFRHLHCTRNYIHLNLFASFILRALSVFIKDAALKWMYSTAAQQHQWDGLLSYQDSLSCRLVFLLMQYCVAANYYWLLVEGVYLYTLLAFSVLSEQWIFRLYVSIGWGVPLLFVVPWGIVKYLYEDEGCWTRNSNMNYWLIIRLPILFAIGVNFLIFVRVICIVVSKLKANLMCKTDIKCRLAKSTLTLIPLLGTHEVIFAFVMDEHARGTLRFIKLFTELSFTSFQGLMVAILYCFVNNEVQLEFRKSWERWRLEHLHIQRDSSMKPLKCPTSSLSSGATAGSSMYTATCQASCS
# UniProt Q13148, whole entry, looked up: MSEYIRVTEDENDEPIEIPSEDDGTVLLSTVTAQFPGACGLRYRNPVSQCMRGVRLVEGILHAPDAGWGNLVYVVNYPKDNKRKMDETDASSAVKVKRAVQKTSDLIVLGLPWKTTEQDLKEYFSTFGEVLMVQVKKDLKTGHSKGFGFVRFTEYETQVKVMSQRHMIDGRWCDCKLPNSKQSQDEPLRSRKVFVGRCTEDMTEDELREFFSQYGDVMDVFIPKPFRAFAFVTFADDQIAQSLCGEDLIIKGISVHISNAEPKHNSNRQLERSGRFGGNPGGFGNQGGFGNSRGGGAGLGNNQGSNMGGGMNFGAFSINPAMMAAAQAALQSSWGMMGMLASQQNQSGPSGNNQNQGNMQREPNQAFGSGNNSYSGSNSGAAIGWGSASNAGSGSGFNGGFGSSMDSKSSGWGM
# UniProt Q9UBT6: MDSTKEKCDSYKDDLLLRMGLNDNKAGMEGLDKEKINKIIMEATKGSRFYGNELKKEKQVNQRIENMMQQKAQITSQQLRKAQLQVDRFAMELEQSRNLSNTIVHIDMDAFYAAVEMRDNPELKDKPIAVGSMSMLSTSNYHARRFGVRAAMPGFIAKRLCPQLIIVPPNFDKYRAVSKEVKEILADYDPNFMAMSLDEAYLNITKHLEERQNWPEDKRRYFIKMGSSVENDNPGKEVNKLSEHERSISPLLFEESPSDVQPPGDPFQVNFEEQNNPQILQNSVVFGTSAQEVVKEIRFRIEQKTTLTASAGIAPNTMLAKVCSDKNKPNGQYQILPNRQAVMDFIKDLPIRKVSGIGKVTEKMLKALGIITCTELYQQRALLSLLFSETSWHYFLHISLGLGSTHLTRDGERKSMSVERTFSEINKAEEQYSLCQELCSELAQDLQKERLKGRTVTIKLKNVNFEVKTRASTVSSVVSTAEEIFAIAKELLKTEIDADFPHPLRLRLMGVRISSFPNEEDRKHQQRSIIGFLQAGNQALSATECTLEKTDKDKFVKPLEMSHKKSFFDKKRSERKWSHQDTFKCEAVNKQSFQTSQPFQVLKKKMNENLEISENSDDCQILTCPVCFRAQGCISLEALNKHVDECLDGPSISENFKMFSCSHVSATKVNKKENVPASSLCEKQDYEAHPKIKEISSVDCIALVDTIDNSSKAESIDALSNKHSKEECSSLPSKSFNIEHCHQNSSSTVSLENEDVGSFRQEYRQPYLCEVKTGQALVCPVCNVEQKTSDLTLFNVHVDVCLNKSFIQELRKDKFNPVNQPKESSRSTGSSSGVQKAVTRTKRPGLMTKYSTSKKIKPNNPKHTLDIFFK
# UniProt O94925: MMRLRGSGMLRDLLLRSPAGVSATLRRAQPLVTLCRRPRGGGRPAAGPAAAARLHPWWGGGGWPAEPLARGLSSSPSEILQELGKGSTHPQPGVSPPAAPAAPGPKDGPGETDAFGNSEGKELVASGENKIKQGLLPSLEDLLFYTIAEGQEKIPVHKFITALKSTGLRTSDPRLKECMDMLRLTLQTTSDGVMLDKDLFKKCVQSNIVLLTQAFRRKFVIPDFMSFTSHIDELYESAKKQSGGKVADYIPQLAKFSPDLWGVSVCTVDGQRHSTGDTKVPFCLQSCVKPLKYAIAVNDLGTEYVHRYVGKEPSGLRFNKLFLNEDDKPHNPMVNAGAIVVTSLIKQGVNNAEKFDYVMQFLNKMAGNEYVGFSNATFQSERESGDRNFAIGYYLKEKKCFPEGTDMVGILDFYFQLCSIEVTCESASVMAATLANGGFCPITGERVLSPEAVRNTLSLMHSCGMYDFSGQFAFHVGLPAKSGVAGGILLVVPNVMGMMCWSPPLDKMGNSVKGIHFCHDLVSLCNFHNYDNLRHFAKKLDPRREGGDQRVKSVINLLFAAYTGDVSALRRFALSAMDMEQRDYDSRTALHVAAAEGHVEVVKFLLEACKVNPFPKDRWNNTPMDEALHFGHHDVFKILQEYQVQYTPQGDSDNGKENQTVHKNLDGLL
# UniProt P02791: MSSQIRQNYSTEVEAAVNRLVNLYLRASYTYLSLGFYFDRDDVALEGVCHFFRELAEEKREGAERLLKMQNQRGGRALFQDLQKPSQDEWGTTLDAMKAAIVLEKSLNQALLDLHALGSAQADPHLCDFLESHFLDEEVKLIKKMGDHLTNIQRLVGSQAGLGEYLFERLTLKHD
# Only a part is listed here, and it is no random draw. Only a part of the results of these assays is listed, not drawn at random. Some of the results follow. For part of these data: Potency and affinity values are given separately. Calls of active or inactive are those of the source. Unless noted, the calls are words filed in the database; no cut-off is given here.
# Assays:
# [1] = molecular target: Polyunsaturated fatty acid lipoxygenase ALOX15B (Homo sapiens) (UniProt O15296); assay: qHTS Assay for Inhibitors of 15-hLO-2 (15-human lipoxygenase 2). [Related pubchem assays (depositor defined):AID2312, AID2537, AID2702]; format: functional
# [2] = molecular target: 3-hydroxyacyl-CoA dehydrogenase type-2 (Homo sapiens) (UniProt Q99714); assay: qHTS Assay for Inhibitors of HSD17B4, hydroxysteroid (17-beta) dehydrogenase 4.; format: functional
# [3] = qHTS Assay for Compounds that Induce Erasure of Genomic Imprints.; format: functional
# [4] = molecular target: Lysosomal alpha-glucosidase (Homo sapiens) (UniProt P10253); assay: qHTS Assay for Inhibitors and Activators of Human alpha-Glucosidase Cleavage of Glycogen. [Related pubchem assays: 1473, 1466 ]; format: functional
# [5] = molecular target: Polyunsaturated fatty acid lipoxygenase ALOX15 (Homo sapiens) (UniProt P16050); assay: qHTS Assay for Inhibitors of 15-hLO (15-human lipoxygenase).; format: functional
# [6] = molecular target: Cellular tumor antigen p53 (Homo sapiens) (UniProt P04637); assay: qHTS assay for re-activators of p53 using a Luc reporter. [Related pubchem assays (depositor defined):AID504709]; format: functional
# [7] = molecular target: 15-hydroxyprostaglandin dehydrogenase [NAD(+)] (Homo sapiens) (UniProt P15428)
# [8] = molecular target: Ras-related protein Rab-9A (Homo sapiens) (UniProt P51151); assay: qHTS Assay for Rab9 Promoter Activators.; format: functional
# [9] = molecular target: Huntingtin (Homo sapiens) (UniProt P42858); assay: qHTS Multiplex Assay to Identify Dual Action Probes in a Cell Model of Huntington: Aggregate Formation (GFP). [Related pubchem assays: 1482, 1471 ]; format: functional
# [10] = molecular target: Pyruvate kinase PKM (Homo sapiens) (UniProt P14618); assay: qHTS Assay for Inhibitors of Human Muscle isoform 2 Pyruvate Kinase. [Related pubchem assays: 1379 ]; format: functional
# [11] = molecular target: Lethal(3)malignant brain tumor-like protein 1 (Homo sapiens) (UniProt Q9Y468); assay: qHTS Assay for the Inhibitors of L3MBTL1. [Related pubchem assays: 485292 (Probe Development Summary for Inhibitors of L3MBTL1)]; format: functional
# [12] = molecular target: Ataxin-2 (Homo sapiens) (UniProt Q99700); assay: qHTS for Inhibitors of ATXN expression.; format: functional
# [13] = molecular target: Breast cancer type 1 susceptibility protein (Homo sapiens) (UniProt P38398); assay: qHTS Assay to Identify Small Molecule Activators of BRCA1 Expression.; format: functional
# [14] = molecular target: Geminin (Homo sapiens) (UniProt O75496); assay: A quantitative high throughput screen for small molecules that induce DNA re-replication in MCF 10a normal breast cells.; format: functional
# [15] = molecular target: Glycoprotein hormones alpha chain (Homo sapiens) (UniProt P01215); assay: qHTS for Activators of Integrin-Mediated Alleviation for Muscular Dystrophy.; format: functional
# [16] = qHTS for induction of synthetic lethality in tumor cells producing 2HG: qHTS for the HT-1080-IDH1KD cell line.; format: functional
# [17] = molecular target: DNA polymerase eta (Homo sapiens) (UniProt Q9Y253); assay: qHTS for Inhibitors of Polymerase Eta: Confirmatory Assay for Cherry-picked Compounds.; format: functional
# [18] = molecular target: Lysine-specific demethylase 4E (Homo sapiens) (UniProt B2RXH2); assay: qHTS Assay for Inhibitors of Human Jumonji Domain Containing 2E (JMJD2E).; format: functional
# [19] = molecular target: Nuclear receptor ROR-gamma (Mus musculus) (UniProt P51450); assay: VP16 counterscreen qHTS for inhibitors of ROR gamma transcriptional activity.; format: functional
# [20] = molecular target: Aldehyde dehydrogenase 1A1 (Homo sapiens) (UniProt P00352); assay: qHTS Assay for Inhibitors of Aldehyde Dehydrogenase 1 (ALDH1A1). [Related pubchem assays: 1030 (qHTS Validation Assay for Inhibitors of aldehyde dehydrogenase 1 (ALDH1A1))]; format: functional
# [21] = molecular target: Glucagon-like peptide 1 receptor (Homo sapiens) (UniProt P43220); assay: qHTS of GLP-1 Receptor Inverse Agonists (Inhibition Mode).; format: functional
# [22] = system: Drosophila; assay: qHTS Assay for Lipid Storage Modulators in Drosophila S3 Cells.; format: functional
# [23] = molecular target: TAR DNA-binding protein 43 (Homo sapiens) (UniProt Q13148); assay: qHTS of TDP-43 Inhibitors.; format: functional
# [24] = molecular target: Menin/Histone-lysine N-methyltransferase MLL (Homo sapiens) (UniProt O00255+Q03164); assay: qHTS Assay for Inhibitors Targeting the Menin-MLL Interaction in MLL Related Leukemias: Competition With Fluorescein Labeled MLL-derived Peptide.; format: functional
# [25] = molecular target: Lysine-specific demethylase 4A (Homo sapiens) (UniProt O75164); assay: qHTS Assay for Inhibitors of JMJD2A-Tudor Domain. [Related pubchem assays (depositor defined):AID504402]; format: functional
# [26] = molecular target: Serine/threonine-protein kinase PLK1 (Homo sapiens) (UniProt P53350); assay: qHTS for Inhibitors of PLK1-PDB (polo-like kinase 1 - polo-box domain): Primary Screen.; format: functional
# [27] = molecular target: DNA polymerase kappa (Homo sapiens) (UniProt Q9UBT6); assay: qHTS for Inhibitors of Polymerase Kappa. [Related pubchem assays (depositor defined):AID588638]; format: functional
# [28] = molecular target: DNA polymerase eta (Homo sapiens) (UniProt Q9Y253); assay: qHTS for Inhibitors of Polymerase Eta. [Related pubchem assays (depositor defined):AID588636]; format: functional
# [29] = molecular target: Glutaminase kidney isoform, mitochondrial (Homo sapiens) (UniProt O94925); assay: qHTS for Inhibitors of Glutaminase (GLS).; format: functional
# [30] = molecular target: Vitamin D3 receptor (Homo sapiens) (UniProt P11473); assay: Inhibitors of the vitamin D receptor (VDR): qHTS. [Related pubchem assays (depositor defined):AID504855]; format: functional
# [31] = molecular target: Geminin (Homo sapiens) (UniProt O75496); assay: A quantitative high throughput screen for small molecules that induce DNA re-replication in SW480 colon adenocarcinoma cells.; format: functional, cell-based
# [32] = molecular target: Ferritin light chain (Equus caballus) (UniProt P02791)
# [33] = molecular target: Guanine nucleotide-binding protein G(s) subunit alpha isoforms short (Homo sapiens) (UniProt P63092); assay: qHTS for Agonist of gsp, the Etiologic Mutation Responsible for Fibrous Dysplasia/McCune-Albright Syndrome: qHTS.; format: functional
# [34] = molecular target: Parathyroid hormone/parathyroid hormone-related peptide receptor (Homo sapiens) (UniProt Q03431); assay: qHTS of PTHR Inhibitors: Primary Screen.; format: functional
# [35] = system: NCI-H23
# [36] = system: RXF 393
compound,measurement,setting,value
Cc1nc2ccc3ccccc3c2o1,Potency,[1],active: 12.6 µM
same,Potency,[2],active: 20 µM
same,Potency,[3],inactive
same,Potency,[4],active: 24.9 µM
same,Potency,[5],active: 12.6 µM
same,Potency,[6],inactive
same,Potency,[7],active: 31.6 µM
CCc1nc2c([nH]1)c1no[n+]([O-])c1c1no[n+]([O-])c21,Potency,[8],inactive
same,Potency,[9],active: 11.2 µM
same,Potency,[3],inactive
same,Potency,[10],inactive
same,Potency,[11],active: 5.01 µM
same,Potency,[12],active: 15.8 µM
same,Potency,[13],inactive
same,Potency,[14],active: 2.91 µM
same,Potency,[15],inactive
same,Potency,[16],active: 20.6 µM
same,Potency,[17],active: 84.9 µM
O=[N+]([O-])c1cc([N+](=O)[O-])c(NCC2CCS(=O)(=O)C2)c([N+](=O)[O-])c1 (centres undefined),Potency,[18],active: 31.6 µM
same,Potency,[19],active: 4.47 µM
same,Potency,[20],active: 7.08 µM
same,Potency,[21],inactive
same,Potency,[14],active: 9.2 µM
CC(=O)Nc1ccc([As](=O)(O)O)c(O)c1,Potency,[10],inactive
NC(=NO)c1c(N)no[n+]1[O-],Potency,[22],active: 14.6 µM
same,Potency,[23],inactive
O=[N+]([O-])c1ccc(Nc2ccc(Oc3ccc([N+](=O)[O-])cc3[N+](=O)[O-])cc2)c([N+](=O)[O-])c1,Potency,[24],inactive
Cc1nc2ccc3ccccc3c2s1,Potency,[25],active: 56.2 µM
same,Potency,[26],active: 29.9 µM
same,Potency,[7],active: 28.2 µM
O=C1C(O)=C([N+](=O)[O-])C(=O)C(O)=C1[N+](=O)[O-],Potency,[25],active: 10 µM
same,Potency,[27],active: 50.1 µM
same,Potency,[28],active: 3.98 µM
same,Potency,[29],active: 5.01 µM
O=C(NC1CCS(=O)(=O)C1)NP(=S)(Oc1ccccc1)Oc1ccccc1 (centres undefined),Potency,[30],inactive
O=P1(N(CCCl)CCCl)OCCCS1 (centres undefined),Potency,[30],inactive
CC1=NCCc2c1[nH]c1ccccc21,Potency,[31],inactive
same,Potency,[32],inactive
Cc1ccc(Nc2c([N+](=O)[O-])cc([N+](=O)[O-])cc2[N+](=O)[O-])cc1,Potency,[12],active: 10 µM
same,Potency,[33],inactive
same,Potency,[15],inactive
same,Potency,[34],inactive
Nc1ccc2c(ccc3cccnc32)n1,Potency,[21],inactive
Cn1c(=O)[nH]cc(N(CCCl)CCCl)c1=O,Potency,[33],inactive
O=[N+]([O-])c1cc([N+](=O)[O-])c(OC2CCCCC2O)c([N+](=O)[O-])c1 (centres undefined),Potency,[34],inactive
O[C@@H]1CCN2CCC[C@H]12,GI50,[35],inactive: > 100 µM
same,GI50,[36],inactive: > 100 µM
Cc1cc(SC(NC(=O)c2ccccc2)C(Cl)(Cl)Cl)nc(C(C)C)n1 (centres undefined),Potency,[33],inactive
NNc1nc2nonc2nc1NN,GI50,[35],inactive: 44.4 µM
same,GI50,[36],inactive: > 100 µM
Nc1nc2c(ncn2CCN(CCCl)CCCl)c(=O)[nH]1,GI50,[35],inactive: > 100 µM
same,GI50,[36],inactive: > 100 µM
CCC1=CC2Cc3nc4ccc(Cl)cc4c(N)c3C(C1)C2 (centres undefined),Potency,[33],inactive
O=[N+]([O-])c1ncn(F)c1[N+](=O)[O-],GI50,[36],inactive: > 100 µM
